In US4382920A, “Hormone-like peptides and use thereof” (Perignon Investments Ltd., priority 1980, dated 1983):
Read-outs that look alike come from different tables or passages of the source.

Test: Body temperature of mice after intravenous injection
Format: in vivo
Method: Type: Out-breed, white NMRI
Average body weight: 24-27 gm
Diet: Standard food pellet
Mice fasted 12-15 hrs. prior to testing (water given during this period)
Mice all separated from one another
Mice kept in quiet and dark environment
Testing time: 1 p.m.-3 p.m. each day
Test solution is prepared by:
(b) dissolving a known amount of the refined brain extract in 0.4 ml of trishydrochloric buffer and adjusting the pH of the solution to from about 7.0 to about 7.4 by titrating with microdrops of 1 M or 0.1 M sodium hydroxide solution.
Volume of solution injected into mice:
Solution is at room temperature when injected into mice.
Mouse is placed in restrainer
Injection is made in the tail vein
Injection time: 2 minutes
Body temperature is measured by inserting a thermistor into the anal cavity to a depth of 11/2 cm (thermistor is made by Thermovit, Fu. Armatherm, Lemgo, W. Germany)
Temperature measurements are begun immediately after injection, i.e., 2 minutes after injection started
The extract obtained from the brain of 40 lungfish is used. Five mice are used in obtaining the data on the aroused lungfish and nine mice are used for the data on the estivating lungfish.

Question: With CC(=O)[O-].[Na+] [1.0 M SODIUM ACETATE, SODIUM ACETATE] as the compound, how does the “body temperature at 2 min” value read?
Answer: Its value is 36.5.

Question: What about the “body temperature at 2 min” value (listed as 3.0 M SODIUM ACETATE) of the same compound?
Answer: Its value is 36.0.
